Screens (PubChem)
Rows were chosen to be rich in hits. Some 3.7% of all compounds tested hit in one or more screens of this group.
miR-21 reporter: miR-21 reporter, rising signal; Potency, µM (titrated, usually from 38.3 µM), without a hit: at the highest dose reporter change, positive = more light; AID 2288; 340,000 tested, under 10 active; HeLa miR-21 FLuc reporter, luciferase, 48 h; active = well fitted rising curve with a large enough effect; inconclusive = small, poorly fitted or top-dose-only effect; inactive = no such curve, though single readings can be large or run the other way;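 note: % of control where 0% means no effect; miR-21 action dims this reporter so a rising signal means less miR-21 action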
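Compounds were titrated across several concentrations (up to approximately 40 uM) and incubated 48 hours with HeLa miR-21-FLuc reporter cells (miR-21 target sequence downstream of FLuc, endogenous miR-21). Readout was firefly luciferase luminescence after lytic detection reagent.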
Nrf2 inh: inhibitors of Nrf2 signaling; A549 ARE-Fluc reporter, luciferase luminescence, 18-24 h; Potency, µM (titrated, usually from 46 µM), for inactives: top-dose activity change, negative = inhibition, usual class: inhibitors; actives 2.1% (n = 360,000); also: potency is read from the fitted curve at half-maximal effect; % is scaled to controls: 0 for no effect and ±100 for the full control effect; nearly all actives have a fitted effect of over 60% in size
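Nrf2 function is reported as luminescence of an ARE-controlled luciferase in A549 cells. Compounds were tested at several concentrations, and a CellTiter-Fluor read on the same wells flagged cytotoxicity.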
Nrf2 ARE act: Nrf2 pathway activation. AREc32 ARE-luciferase reporter (MCF7-derived line), luminescence, 24 h. Potency, µM (series often up to 46.1 µM), for the others: top-dose activation, actives largely listed as activators. actives 0.31% (n = 410,000). AID 624171; also: potency is read from the fitted curve at half-maximal effect; % of control where 0% means no effect; nearly all actives have a fitted effect of over 65% in size
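For detection, Steady-Glo was added and plates sat 30 min at RT; before that, AREc32_Fluc cells grown overnight in OPTI-MEM/5% FBS had been treated with 23 nL compound for 24 hr at 37 deg C.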
IL2 activator: activators of IL-2; IL-2 activation reporter assay, cell-based qHTS; stimulated with anti-CD3/CD4/CD28 beads; in transgenic mouse T cells; activation, % (series mostly up to about 46 µM); actives 0.065% (n = 360,000); AID 652025; in the data active = activation above about 50%; inconclusive = mostly about 30% to 49%; also: 0% is about no effect
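Readout is EGFP and DsRed signal by fluorescent plate cytometry after 18 h at 37 degrees C. Transgenic mouse T cells (750/well) received compound for 60 min before bead stimulation (anti-CD3, anti-CD4, anti-CD28); memory T cells served as non-tolerant control.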
A549 viability: kills or reduces viability of A549 cells in Nrf2 counter-screen; Potency, µM (titrated, usually from 46 µM), for the others: top-dose activity change, negative = cytotoxicity, actives largely listed as inhibitors; AID 504648; A549 ARE-Fluc cells, CellTiter-Fluor viability, 18-24 h; actives 0.16% (n = 390,000); also: potency is read from the fitted curve at half-maximal effect; % is scaled to controls: 0 for no effect and ±100 for the full control effect
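Cytotoxicity counterscreen: CellTiter-Fluor fluorescence was measured in A549 ARE_Fluc cells after 18-24 h of compound exposure in a concentration series. The subsequent BugLite luminescent read reports ARE-luciferase activity.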
ClpP mod: qHTS Assay for Activators of ClpP. purified B. subtilis ClpP, FRET peptide cleavage, 20 min. actives 1.9% (n = 340,000). Potency, µM (series often up to 57.5 µM), for the others: at the top dose activity change, negative = active; active = well fitted falling curve with a large enough effect; inconclusive = small, poorly fitted or top-dose-only effect; inactive = no such curve, though single readings can be large or run the other way; also: potency is read from the fitted curve at half-maximal effect; the source files actives as falling curves though it sought activators and does not explain the sign; nearly all actives have a fitted effect of over 65% in size
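Buffer: 100 mM Tris/HCl pH8, 100 mM KCl, 0.05% low protease BSA, 2.5% glycerol, 0.01% Tween-20. ClpP 10 microg/mL final; 20 min RT; delta FRET normalized to ADEP and DMSO controls.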
* marks the source's active call; other numbers are inactive results; ? = inconclusive; . = no result given. Unless noted, calls follow the shape of the dose curve; as a rule, active = well fitted curve in the direction sought with a large enough effect; inconclusive = small, poorly fitted or top-dose-only effect, or another doubt; inactive = no such curve, though single readings can be large; an effect the other way counts as inactive or inconclusive.

Under each structure: A549 viability | miR-21 reporter | Nrf2 inh | Nrf2 ARE act | IL2 activator | ClpP mod
1) O=C(c1ccc(Cl)c(S(=O)(=O)N2CCCC2)c1)N1CCN(c2ccccc2)CC1
    -15% | 7% | 15µM* | 2% | 0 | .
2) O=C(c1ccc(Cl)c(S(=O)(=O)N2CCCCC2)c1)N1CCCCC1
    -1% | -8% | 16% | 0% | -1 | 0%
3) O=C(c1ccc(Cl)c(S(=O)(=O)N2CCCCCC2)c1)N1CCN(c2ccccc2O)CC1
    -15% | 26% | 18µM* | 0% | 0 | ?
4) O=C(c1ccc(Br)c(S(=O)(=O)N2CCCCC2)c1)N1CCCCC1
    -1% | 4% | -4% | 1% | 0 | 22µM*
5) O=C(c1ccc(Cl)c(S(=O)(=O)N2CCOCC2)c1)N1CCN(c2ccccc2)CC1
    6% | 2% | -5% | 3% | -1 | -3%
6) O=C(c1ccc(Cl)c(S(=O)(=O)N2CCCC2)c1)N1CCN(c2ccc(F)cc2)CC1
    -12% | 17% | ? | 1% | 0 | .
7) O=C(c1ccc(Cl)c(S(=O)(=O)N2CCCCC2)c1)N1CCN(c2ccccc2)CC1
    -18% | 21% | 23µM* | -1% | -3 | 1%
8) Cc1cc2c(s1)c1cnn(Cc3ccc(Cl)c(Cl)c3)c(=O)c1n2C
    0% | . | 13% | . | . | .
9) CCOC(=O)N1CCC(NC(=O)c2cc(-c3ccc(F)cc3)[nH]c2C)CC1
    -29% | -1% | 23µM* | 4% | 1 | ?
10) CCOC(=O)N1CCC(NC(=O)c2cc(C(=O)NCc3ccc(F)cc3)ccc2CO)CC1
    -8% | 4% | -24% | 0% | 0 | -1%

Other entries:
Under each structure: A549 viability | miR-21 reporter | Nrf2 inh | Nrf2 ARE act | IL2 activator | ClpP mod
11) Cc1ccc(CNC(=O)CN(c2ccc(C(C)C)cc2)S(=O)(=O)c2c(C)n[nH]c2C)cc1
    ? | 16% | 23µM* | 0% | . | 0%
12) Cc1ccc(CNC(=O)CN(c2ccc(C)cc2)S(=O)(=O)c2c(C)n[nH]c2C)cc1
    6% | 1% | -5% | -1% | -1 | -1%
13) CCOc1ccccc1NC(=O)CN(c1ccc(C)cc1)S(=O)(=O)c1c(C)noc1C
    -4% | 19% | 16µM* | 0% | 0 | 0%
14) COc1cccc(CNC(=O)CN(c2ccc(C(C)C)cc2)S(=O)(=O)c2c(C)noc2C)c1
    -5% | 1% | 16µM* | 2% | 0 | -3%
15) O=C(O)CSc1c(-c2ccccc2)c2cc(Cl)ccc2[nH]c1=O
    10% | 1% | 7% | 0% | -2 | -2%
16) Cc1nnc(Sc2c(-c3ccccc3)c3ccc(Cl)cc3[nH]c2=O)s1
    -13% | -8% | 18µM* | -1% | -1 | -20%
17) COc1ccc(S(=O)(=O)n2nc(-c3ccco3)nc2NCc2ccc(N(C)C)cc2)cc1
    -10% | -45% | -9% | 6% | . | -12%
18) COc1ccccc1NCC(O)Cn1c2ccccc2c2ccccc21 (stereo not drawn)
    21µM* | 0% | ? | 2% | -1 | -20%
19) COc1ccc(CCNCC(O)Cn2c3ccccc3c3ccccc32)cc1OC (stereo not drawn)
    -1% | ? | ? | -4% | -1 | -4%
20) Cc1cccc(-c2nc3c4ccccc4n(CC(=O)Nc4cccc(F)c4)c(=O)n3n2)c1
    -8% | 3% | . | 15% | . | 5%

(list continues)
Under each structure: A549 viability | miR-21 reporter | Nrf2 inh | Nrf2 ARE act | IL2 activator | ClpP mod
21) CC(Sc1cccc2cccc(C(=O)O)c12)C(=O)O (stereo not drawn)
    -19% | 0% | . | 0% | 0 | 14µM*
22) CC(Sc1ccc2ccccc2n1)C(=O)O (stereo not drawn)
    0% | -7% | 1% | 4% | 0 | -2%
23) Cc1ccc(CSc2nnc(-c3ccc(NC(=O)CCc4ccccc4)cc3)n2C)cc1
    . | . | . | . | . | -3%
24) CC(NC(=O)c1ccccc1Br)C1CC2CCC1C2 (stereo not drawn)
    -1% | . | 13% | 2% | 1 | .
25) CC(NC(=O)C1CCCC1)C1CC2CCC1C2 (stereo not drawn)
    1% | -1% | ? | 0% | -2 | 28µM*
26) CC(NC(=O)c1ccccc1[N+](=O)[O-])C1CC2CCC1C2 (stereo not drawn)
    -1% | -13% | -5% | 0% | 2 | 25µM*
27) COc1ccc(/C=C/C(=O)NCc2ccccn2)cc1
    0% | -36% | ? | 2% | 2 | 25µM*
28) COc1cc(/C=C/C(=O)Nc2nnc(CC(C)(C)C)s2)cc(OC)c1OC
    -2% | -4% | 4% | 0% | 0 | 1%
29) COc1cc(/C=C/C(=O)Nc2nnc(CC(C)C)s2)cc(OC)c1OC
    -7% | -14% | 12% | 1% | 6 | 35µM*
30) COc1ccc(/C=C/C(=O)NCc2ccccn2)cc1OC
    11% | -6% | 2% | 2% | 0 | .

Fetched one by one from the entries so far (4):
Under each structure: A549 viability | miR-21 reporter | Nrf2 inh | Nrf2 ARE act | IL2 activator | ClpP mod
26) CC(NC(=O)c1ccccc1[N+](=O)[O-])C1CC2CCC1C2 (stereo not drawn)
    -1% | -13% | -5% | 0% | 2 | 25µM*
4) O=C(c1ccc(Br)c(S(=O)(=O)N2CCCCC2)c1)N1CCCCC1
    -1% | 4% | -4% | 1% | 0 | 22µM*
8) Cc1cc2c(s1)c1cnn(Cc3ccc(Cl)c(Cl)c3)c(=O)c1n2C
    0% | . | 13% | . | . | .
16) Cc1nnc(Sc2c(-c3ccccc3)c3ccc(Cl)cc3[nH]c2=O)s1
    -13% | -8% | 18µM* | -1% | -1 | -20%

The list continues.
Under each structure: A549 viability | miR-21 reporter | Nrf2 inh | Nrf2 ARE act | IL2 activator | ClpP mod
31) COc1cc(/C=C/C(=O)NCc2ccccn2)cc(OC)c1OC
    1% | 4% | ? | 3% | 0 | 25µM*
32) CCOC(=O)/C=C/c1ccc2c(c1)S(=O)(=O)N(C1CCCC1)[C@H]2CC(=O)OCC
    . | . | . | . | . | -13%
33) CCOc1ccc(-c2cc(C(=O)Nc3ccc(NC(C)=O)cc3)no2)cc1
    0% | -16% | ? | 3% | . | -6%
34) CCc1ccc(NC(=O)CN(Cc2ccccc2)S(=O)(=O)c2ccc3nc(C)sc3c2)cc1
    -1% | 5% | ? | 0% | . | 1%
35) COc1ccc2ncnc(NCC3CCCO3)c2c1-c1ccc2c(c1)OCO2 (stereo not drawn)
    -24% | . | ? | . | . | .
36) COc1ccc(N2CCN(C(CNC(=O)c3c(F)cccc3F)c3ccc4c(c3)OCO4)CC2)cc1 (stereo not drawn)
    -12% | -5% | . | 0% | . | -4%
37) Cc1nn(-c2cccc(C(F)(F)F)c2)c(=O)c2ccccc12
    5% | -15% | 0% | 3.5µM* | 4 | 1%
38) Cc1nn(-c2ccccc2)c(=O)c2ccccc12
    -1% | -16% | 4% | 5% | -1 | .
39) Cn1cc(CCCC(=O)NCc2ccccc2Cl)c2ccccc21
    1% | -2% | -5% | 4% | . | -17%
40) CC(C)NC(=O)CCCc1cn(C)c2ccccc12
    0% | -6% | -10% | 0% | -2 | 32µM*

Entries of single compounds from above.
`Cn1cc(CCCC(=O)NCc2ccccc2Cl)c2ccccc21` as listed: A549 viability: 1%; miR-21 reporter: -2%; Nrf2 inh: -5%; Nrf2 ARE act: 4%; IL2 activator: .; ClpP mod: -17%
`CCOc1ccc(-c2cc(C(=O)Nc3ccc(NC(C)=O)cc3)no2)cc1` as listed: A549 viability: 0%; miR-21 reporter: -16%; Nrf2 inh: ?; Nrf2 ARE act: 3%; IL2 activator: .; ClpP mod: -6%

Further entries.
Under each structure: A549 viability | miR-21 reporter | Nrf2 inh | Nrf2 ARE act | IL2 activator | ClpP mod
41) Cn1c(N)c(C#N)c(C#N)c1-c1ccccc1
    7% | -2% | . | -2% | 1 | -30%
42) N#Cc1c(C#N)c(-c2ccccc2)n(-c2ccccc2)c1N
    -19% | -20% | ? | 2% | 1 | 28µM*
43) CC(=O)N1CCCc2cc(S(=O)(=O)N3CCN(c4ccc(F)cc4)CC3)ccc21
    2% | 9% | . | 4% | . | 0%
44) CCOc1ccc(-n2cc(C(=O)Nc3ccccc3OCC)c3cc(OC)c(OC)cc3c2=O)cc1
    13% | 12% | ? | 0% | . | -3%
45) O=C(COC(=O)c1ccccc1NCCO)NCCc1ccccc1
    2% | . | 4% | 0% | 1 | 14µM*
